Reference: ChEMBL document CHEMBL1158399, “Synthesis, biological evaluation and molecular modeling of oxoisoaporphine and oxoaporphine derivatives as new dual inhibitors of acetylcholinesterase/butyrylcholinesterase” (Eur J Med Chem, 2009)

Test: Selectivity ratio of IC50 for equine serum BuChE to IC50 for electric eel AChE
How it was run: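 Modified Ellman assays with electric eel AChE and equine serum BuChE (enzyme stocks 2.0 units/mL). AChE substrate was acetylthiocholine chloride (0.01 M stock), in phosphate buffer pH 8.0 with DTNB (0.01 M stock), after 15 min inhibitor preincubation. A412 read over 1 min at 37 °C. IC50s are means ± SEM of three experiments; ratio = IC50(BuChE)/IC50(AChE).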

Q: Which Ratio IC50 does the source give for `Nc1ccc2c(c1)C(=O)c1cccc3ccnc-2c13` here?
A: Its Ratio IC50 is over 4.
